Screens (PubChem)
Nrf2 ARE act: activates Nrf2 signaling; AREc32 ARE-luciferase reporter (MCF7-derived line), luminescence, 24 h; Potency, µM (highest dose often 46.1 µM), for inactives: top-dose activation, most hits filed as activators; 410,000 compounds, 0.31% hits; also: potency is read from the fitted curve at half-maximal effect; % of control where 0% means no effect; nearly all actives have a fitted effect of over 65% in size
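ARE-driven firefly luciferase activity in AREc32 cells measured after a 24 hr compound exposure at 37 deg C, using Steady-Glo reagent and a 30 min room-temperature hold.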
IL-2 act: activators of IL-2. 360,000 compounds, 0.065% hits. IL-2 activation reporter assay, cell-based qHTS; stimulated with anti-CD3/CD4/CD28 beads; in transgenic mouse T cells. activation, % (series mostly up to about 46 µM). AID 652025; in the data active = activation above about 50%; inconclusive = mostly about 30% to 49%; also: 0% is about no effect
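Readout is EGFP and DsRed signal by fluorescent plate cytometry after 18 h at 37 degrees C. Transgenic mouse T cells (750/well) received compound for 60 min before bead stimulation (anti-CD3, anti-CD4, anti-CD28); memory T cells served as non-tolerant control.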
A549 tox: kills or reduces viability of A549 cells in Nrf2 counter-screen; 390,000 compounds, 0.16% hits; A549 ARE-Fluc cells, CellTiter-Fluor viability, 18-24 h; Potency, µM (titrated, usually from 46 µM), for the others: at the top dose activity change, negative = cytotoxicity, hits mostly inhibitors; also: potency is read from the fitted curve at half-maximal effect; % is scaled to controls: 0 for no effect and ±100 for the full control effect
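A549 ARE_Fluc cells in 5% FBS OPTI-MEM were exposed to compounds in concentration-response for 18-24 h at 37 deg C. Viability was read by CellTiter-Fluor fluorescence (Ex 405/Em 525) after 30 min, before the luciferase read.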
ClpP mod: qHTS Assay for Activators of ClpP; ATP-dependent Clp protease proteolytic subunit (Bacillus subtilis (strain 168)), P80244; purified B. subtilis ClpP, FRET peptide cleavage, 20 min; Potency, µM (series often up to 57.5 µM), inactives show at the top dose activity change, negative = active; 340,000 compounds, 1.9% hits; AID 651965, 2013; active = well fitted falling curve with a large enough effect; inconclusive = small, poorly fitted or top-dose-only effect; inactive = no such curve, though single readings can be large or run the other way; also: potency is read from the fitted curve at half-maximal effect; the source files actives as falling curves though it sought activators and does not explain the sign; nearly all actives have a fitted effect of over 65% in size
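Buffer: 100 mM Tris/HCl pH8, 100 mM KCl, 0.05% low protease BSA, 2.5% glycerol, 0.01% Tween-20. ClpP 10 microg/mL final; 20 min RT; delta FRET normalized to ADEP and DMSO controls.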
miR-21 reporter: miR-21 reporter, rising signal. 340,000 tested, under 10 active. Potency, µM (highest dose often 38.3 µM), for the others: at the highest dose reporter change, positive = more light. HeLa miR-21 FLuc reporter, luciferase, 48 h. AID 2288; active = well fitted rising curve with a large enough effect; inconclusive = small, poorly fitted or top-dose-only effect; inactive = no such curve, though single readings can be large or run the other way;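 further: % of control where 0% means no effect; miR-21 action dims this reporter so a rising signal means less miR-21 action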
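HeLa cells stably expressing CMV-driven firefly luciferase with a downstream miR-21 binding sequence, endogenously expressing miR-21, were treated with titrations (up to about 40uM final) for 48 hours at 37 degree Celsius. Luciferase luminescence was read after lysis.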
Nrf2 block: blocks Nrf2 signaling | A549 ARE-Fluc reporter, luciferase luminescence, 18-24 h | Potency, µM (series often up to 46 µM), for inactives: top-dose activity change, negative = inhibition, most hits filed as inhibitors | 360,000 compounds, 2.1% hits | AID 504444; also: potency is read from the fitted curve at half-maximal effect; % is scaled to controls: 0 for no effect and ±100 for the full control effect; nearly all actives have a fitted effect of over 60% in size
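In this cell-based qHTS, ARE-driven firefly luciferase in A549 cells reports Nrf2 activity; the luminescent signal after BugLite lysis is the measured value, with a prior CellTiter-Fluor read for cell health.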
* hit, by the source's call; ? = inconclusive; / = no result given; [ ] = another dose, or the depositor's remark. Sampled rows, rich in hits. Any-hit rate of the full collection: about 3.7%. Unless noted, calls follow the shape of the dose curve; as a rule, active = well fitted curve in the direction sought with a large enough effect; inconclusive = small, poorly fitted or top-dose-only effect, or another doubt; inactive = no such curve, though single readings can be large; an effect the other way counts as inactive or inconclusive.

Under each structure: Nrf2 ARE act, IL-2 act, A549 tox, ClpP mod, miR-21 reporter, Nrf2 block
1) Cc1ccc(N2C(N)=NC(N)=NC23CCCC3)c(C)c1
    -0.2%, -2.6, -12.4%, 28.2µM*, -1.8%, /
2) CCOC(=O)c1c(C)[nH]c(C)c1S(=O)(=O)NCC(=O)Nc1ccc(C)cc1C
    0.8%, /, -3.3%, -0.2%, -1.3%, 6.7%
3) COC(=O)c1sc(-c2cccs2)cc1N
    8.91µM*, -0.4, -1.9%, /, -61.6%, 32.3%
4) COC(=O)c1sc(-c2ccc(Cl)cc2)cc1N
    6.8%, -1.6, -3.8%, 1.8%, -66.1%, ?
5) Cc1ccc(CNC(=O)c2ccc3c(=O)c(O)c(-c4ccc(C)cc4)[nH]c3c2)cc1
    7.0%, -0.6, ?, -15.6%, ?, 20.6µM*
6) O=C1CCNc2cc3ccccc3cc21
    0.4%, 0.0, -23.0%, 28.2µM*, -2.2%, ?
7) O=C1CCNc2ccc(-c3ccccc3)cc21
    0.7%[9.22 µM], -0.1, 8.9%, -16.0%, -66.6%, 3.3%
8) CCCN(c1ccccc1F)S(=O)(=O)c1cc(-c2cc(C)no2)ccc1C
    0.4%, /, -1.0%, 1.4%, 14.8%, ?
9) Cc1ccc(C(=O)CSc2nsc(C)c2C#N)cc1
    6.0%, 0.9, -12.6%, -2.2%, -59.8%, ?
10) Cc1cc(C)c(C#N)c(OCC(=O)c2ccc(Br)cc2)n1
    6.31µM*, 1.4, -2.6%, 0.8%, -10.4%, 2.6%

Gathered by group, the compounds so far containing sulfur.
Under each structure: Nrf2 ARE act, IL-2 act, A549 tox, ClpP mod, miR-21 reporter, Nrf2 block
2) CCOC(=O)c1c(C)[nH]c(C)c1S(=O)(=O)NCC(=O)Nc1ccc(C)cc1C
    0.8%, /, -3.3%, -0.2%, -1.3%, 6.7%
3) COC(=O)c1sc(-c2cccs2)cc1N
    8.91µM*, -0.4, -1.9%, /, -61.6%, 32.3%
4) COC(=O)c1sc(-c2ccc(Cl)cc2)cc1N
    6.8%, -1.6, -3.8%, 1.8%, -66.1%, ?
8) CCCN(c1ccccc1F)S(=O)(=O)c1cc(-c2cc(C)no2)ccc1C
    0.4%, /, -1.0%, 1.4%, 14.8%, ?
9) Cc1ccc(C(=O)CSc2nsc(C)c2C#N)cc1
    6.0%, 0.9, -12.6%, -2.2%, -59.8%, ?

(cont.)
Under each structure: Nrf2 ARE act, IL-2 act, A549 tox, ClpP mod, miR-21 reporter, Nrf2 block
11) Cc1ccnc(SCC(=O)c2ccc(Br)cc2)c1C#N
    2.24µM*, -0.6, 15.4%, -2.8%, -52.8%, ?
12) CCOc1ccc(C2CC(=O)Nc3c2c(=O)[nH]c2ncnn32)cc1 (stereo unspecified)
    -1.0%, /, -10.2%, -1.5%, -0.1%, 3.6%
13) Nc1ccc(Sc2cnn(-c3ccccc3)c(=O)c2Cl)cc1
    15.8µM*, 0.2, -6.5%, 20µM*, -11.6%, 3.7%
14) Cc1ccc(Sc2cnn(-c3ccccc3)c(=O)c2Cl)cc1
    5.01µM*, -0.4, 0.6%, -1.6%, 0.0%, 6.1%
15) COc1cnn(-c2cccc(C)c2)c(=O)c1Cl
    7.6%, -0.3, 0.9%, 0.3%, -13.6%, 12.5%
16) Cc1ccc2nccc(/C=C/c3ccc(N(C)C)cc3)c2c1
    /, /, /, -0.4%, /, /
17) Cc1nn(-c2ccccc2)c(N2CCCC2)c1/C=N/NC(=O)c1cccc(S(=O)(=O)Nc2ccc(Cl)cc2)c1
    0.5%, -0.2, ?, -14.7%, 16.9%, 5.8µM*
18) O=C(NCCC1=CCCCC1)c1ccc2c(c1)N(Cc1ccccc1F)C(=O)c1ccccc1S2=O (stereo unspecified)
    -0.4%, /, -3.3%, -1.3%, -1.4%, -15.7%
19) COc1ccc(NC(=O)Cn2nnc(-c3ccccc3NC(=O)c3cccs3)n2)cc1
    -0.7%, 0.6, -14.2%, -3.9%, 0.0%, 18.4µM*
20) CN1C(=O)c2cccc3c(Cl)ccc(c23)C1=O
    0.4%, -0.9, 0.5%, 15.8µM*, -2.3%, -11.1%

Continuation.
Under each structure: Nrf2 ARE act, IL-2 act, A549 tox, ClpP mod, miR-21 reporter, Nrf2 block
21) O=C(c1ccc(-n2cncn2)c([N+](=O)[O-])c1)N1CCN(S(=O)(=O)c2ccccc2F)CC1
    -1.0%, 0.2, 0.3%, 14.1µM*, /, 0.7%
22) Cn1c(NC(=O)/C=C/c2ccccc2)cc(=O)n(C)c1=O
    7.08µM*, -0.1, -2.3%, -1.5%, -32.8%, ?
23) COc1ccc(/C=C/C(=O)Nc2cc(=O)n(C)c(=O)n2C)cc1
    11.0%, -2.6, -3.8%, -1.5%, -45.8%, 2.1%
24) CC(=O)c1ccc(N2CCN(C(=O)CCCc3nc4ccccc4s3)CC2)cc1
    1.9%, -0.9, 2.6%, -15.6%, -9.9%, 14.6µM*
25) CCN(CC)CCN(Cc1cc2cc3c(cc2[nH]c1=O)OCCO3)C(=O)NC1CCCCC1
    0.1%, -0.4, 16.4%, 25.1µM*, -12.7%, 24.1%
26) COc1ccc2[nH]c(=O)c(CNC3CCCCC3)cc2c1
    -0.4%, 0.3, 3.0%, 15.8µM*, -3.2%, 4.4%
27) CCN(CC)CCCN(Cc1cc2ccc(C)c(C)c2[nH]c1=O)C(=O)NC1CCCCC1
    2.0%, -0.8, -1.6%, 28.2µM*, -2.7%, /
28) COc1ccc2[nH]c(=O)c(CN(C(=O)NC3CCCCC3)C3CCCCC3)cc2c1
    1.3%, 3.9, 0.5%, ?, -3.6%, -23.4%
29) COc1ccc(CN(Cc2cc3cc4c(cc3[nH]c2=O)OCO4)C(=O)NC2CCCCC2)cc1
    -0.4%, 1.1, -13.8%, 22.4µM*, -1.9%, -37.0%
30) COc1ccc(NC(=O)N(Cc2cccs2)Cc2cc3cc4c(cc3[nH]c2=O)OCO4)cc1
    /, /, /, /, -0.5%, /

Next structures follow.
Under each structure: Nrf2 ARE act, IL-2 act, A549 tox, ClpP mod, miR-21 reporter, Nrf2 block
31) O=C(CSc1nc(=O)[nH]c2c1CCC2)Nc1cc(C(F)(F)F)ccc1Cl
    1.0%, /, -7.8%, -5.3%, -2.4%, /
32) O=C(NC1CCCCC1)N(CCN1CCOCC1)Cc1cc2cc3c(cc2[nH]c1=O)OCCO3
    -0.4%, 0.0, -3.8%, 35.5µM*, -15.8%, 8.4%
33) Cc1ccc2[nH]c(=O)c(CN(CCCN3CCOCC3)C(=O)NC3CCCCC3)cc2c1
    0.0%, -3.7, 15.2%, ?, -7.8%, 9.4%
34) CCOC(=O)c1c(CN2CCOCC2)oc2ccc(OC)cc12
    -0.4%, 0.5, 13.9%, -11.2%, -2.7%, ?
35) CCOC(=O)c1c(CN2CCCCC2)oc2ccc(O)cc12
    4.6%, 0.7, 4.3%, 28.2µM*, -9.5%, -0.8%
36) COc1ccc(NC(=O)CN2C(=O)CCc3cc(S(=O)(=O)N4CCOCC4)ccc32)c(OC)c1
    0.2%, /, -3.6%, -0.7%, 3.5%, /
37) COC(=O)C1CCN(C(=O)COC(=O)c2n[nH]c3ccccc23)CC1
    -0.4%, -2.7, -4.1%, 31.6µM*, -25.3%, -6.8%
38) O=C(OCC(=O)N1CCCCC1)c1n[nH]c(=O)c2ccccc12
    -0.6%, -1.2, 1.7%, /, /, 6.2%
39) CC1CCCN(C(=O)COC(=O)c2n[nH]c3ccccc23)C1 (stereo unspecified)
    -0.5%, 1.6, 2.7%, 22.4µM*, -52.6%, ?
40) CC(C)(C)OC(=O)N1CCC(c2nnc(SCc3ccccc3F)o2)CC1
    0.2%, /, ?, -1.1%, 23.9%, 20.6µM*

Additional results follow:
Under each structure: Nrf2 ARE act, IL-2 act, A549 tox, ClpP mod, miR-21 reporter, Nrf2 block
41) COc1ccc(CNC(=O)CSc2ccc(Br)cc2)cc1OC
    -0.6%, 0.4, 1.2%, -3.1%, -1.7%, 23.1µM*
42) COc1ccc(CNC(=O)CCSc2ccc(F)cc2)cc1OC
    3.8%, -0.5, 1.1%, 2.0%, -3.5%, 6.4%
43) O=C(CN1CCCCCC1)Nc1cc([N+](=O)[O-])ccc1Cl
    0.2%, -0.5, -8.4%, /, -0.1%, -1.3%
44) O=C(CN1CCCCCC1)Nc1ccc([N+](=O)[O-])cc1Cl
    0.4%, 1.8, -1.0%, 10µM*, -2.6%, 6.2%
45) COc1cccc2c1C(=O)/C(=C\c1ccc(N(C)C)cc1)C2
    /, /, /, 0.1%, /, /
46) CCc1ccc2nc(NC(=O)CCCc3cccs3)sc2c1
    5.0%, 0.3, 9.0%, 12.6µM*, -47.4%, ?
